How the values were obtained:
[1] = biological target: vacuolar ATPase catalytic subunit A (ATP6V1A) (Homo sapiens, UniProt P38606); test: Cellular protein labeling by probe QZ1, CuAAC with TAMRA-azide and in-gel fluorescence; settings: 293 cells, 100 nM QZ1, time course 1 minute to 2 hours
Experimental: FIG. 3. Specific labeling of a cellular protein by the probe. 293 cells were labeled by probe QZ1 for 30 min, lysed, followed by CuAAC-mediated conjugation with TAMRA-azide and in-gel fluorescence imaging.
FIG. 10. Rapid target occupancy by the probe QZ1 in cells.
All the clinically used inhibitors of epidermal growth factor receptor (EGFR) and Her2, including erlotinib, gefitinib, lapatinib, afatinib, poziotinib and dacomitinib, contain a heterocyclic core of 4-anilinoquinazoline. A series of quinazolines containing electrophiles at the 7 position to achieve covalent inhibition of protein kinases were prepared (FIG. 1). In an effort to monitor the cellular selectivity of these electrophilic quinazolines, one electrophilic quinazoline (Formula I) was derivatized with a terminal alkyne group as a reporter at the 3′ position of the anilino group (FIG. 2). […]
To determine the SAR, a series of electrophilic quinazolines synthesized were screened for ones that can inhibit the probe labeling. […] Furthermore, the time course of ATP6V1A labeling by probe QZ1 was determined. […] Immediately after bafilomycin washout, cells were treated with probe QZ1 at various concentrations, labeled with a fluorescent dye DND-99, followed by lysis and fluorescence measurement after 3 h. […]

Sequences of proteins named here, by UniProt entry; tags and fusion partners are left off. A change or cut given only in a name is not applied to a line headed by its entry.
UniProt P38606, whole entry: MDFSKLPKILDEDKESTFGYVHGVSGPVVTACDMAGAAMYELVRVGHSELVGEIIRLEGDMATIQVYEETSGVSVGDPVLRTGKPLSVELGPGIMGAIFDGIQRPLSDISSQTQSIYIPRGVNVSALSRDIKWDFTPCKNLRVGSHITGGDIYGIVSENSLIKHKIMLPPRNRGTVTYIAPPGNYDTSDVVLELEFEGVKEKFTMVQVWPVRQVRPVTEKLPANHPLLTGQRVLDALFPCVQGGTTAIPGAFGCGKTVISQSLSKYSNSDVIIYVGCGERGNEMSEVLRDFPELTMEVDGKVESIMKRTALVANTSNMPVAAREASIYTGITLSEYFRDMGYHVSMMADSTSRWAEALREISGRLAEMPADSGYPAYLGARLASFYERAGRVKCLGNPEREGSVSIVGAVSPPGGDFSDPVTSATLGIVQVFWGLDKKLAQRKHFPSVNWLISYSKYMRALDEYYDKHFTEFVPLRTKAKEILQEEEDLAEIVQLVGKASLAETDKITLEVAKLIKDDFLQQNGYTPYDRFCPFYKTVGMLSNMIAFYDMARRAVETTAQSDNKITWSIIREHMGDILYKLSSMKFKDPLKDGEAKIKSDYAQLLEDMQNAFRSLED
UniProt P38606, whole entry C138S: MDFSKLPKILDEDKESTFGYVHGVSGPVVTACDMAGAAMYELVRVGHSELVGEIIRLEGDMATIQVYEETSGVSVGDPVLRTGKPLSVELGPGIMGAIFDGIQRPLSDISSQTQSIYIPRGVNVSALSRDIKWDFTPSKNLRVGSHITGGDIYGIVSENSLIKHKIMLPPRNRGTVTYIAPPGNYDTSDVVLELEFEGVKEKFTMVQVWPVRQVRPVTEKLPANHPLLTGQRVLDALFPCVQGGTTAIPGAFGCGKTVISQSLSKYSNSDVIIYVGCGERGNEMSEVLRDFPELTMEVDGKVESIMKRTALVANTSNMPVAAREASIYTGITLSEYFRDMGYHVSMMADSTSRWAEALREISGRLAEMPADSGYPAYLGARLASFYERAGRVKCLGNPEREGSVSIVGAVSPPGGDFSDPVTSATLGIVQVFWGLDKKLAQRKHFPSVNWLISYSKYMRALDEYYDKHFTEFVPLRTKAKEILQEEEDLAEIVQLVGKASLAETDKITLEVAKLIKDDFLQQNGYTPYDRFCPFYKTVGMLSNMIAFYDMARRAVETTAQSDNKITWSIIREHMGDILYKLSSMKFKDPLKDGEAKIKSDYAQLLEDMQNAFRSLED

[2] = biological target: V-ATPase (Homo sapiens, UniProt P38606); test: pH recovery assay: vesicle re-acidification after bafilomycin washout; settings: read-out: apparent IC50 for inhibition of vesicle re-acidification; probe added after bafilomycin washout, DND-99 dye, fluorescence measured after 3 h
Experimental: FIG. 12. Effects of QZ1 on V-ATPase re-acidification.
(§1) To determine the SAR, a series of electrophilic quinazolines synthesized were screened for ones that can inhibit the probe labeling. Bafilomycin A1, a known V-ATPase inhibitor targeting V0 domain, was included as a control in the screen. […] To measure the potency of Formula I at inhibiting ATP6V1A labeling by QZ1, 293 cells were first incubated with Formula I for 30 minutes, and then the cells were washed twice with PBS followed by probe addition. […] Furthermore, the time course of ATP6V1A labeling by probe QZ1 was determined. 293 Cells were treated with 100 nM of QZ1 for various lengths of time (ranging from 1 minute to 2 hours). At 5 minutes, intense labeling (close to saturation) of ATPase was observed (FIG. 10). […] To test if probe QZ1 affects V-ATPase function, the probe was applied to a pH recovery assay to study V-ATPase inhibition in cells, which involves pre-treatment with bafilomycin and measuring vesicle re-acidification after it has been washed off. Immediately after bafilomycin washout, cells were treated with probe QZ1 at various concentrations, labeled with a fluorescent dye DND-99, followed by lysis and fluorescence measurement after 3 h. Probe QZ1 inhibited vesicle re-acidification with an apparent IC50 value of 30 nM (FIG. 12).

[3] = biological target: human ATP6V1A C138S (Homo sapiens, UniProt P38606, C138S); test: Probe labeling of 3×FLAG-tagged ATP6V1A with cysteine 138 to serine mutation in transfected 293 cells; settings: 293 cells transfected with 3×FLAG-tagged human ATP6V1A
Experimental: FIG. 11. Identification of probe modification site in ATP6V1A. Top panel is an in-gel fluorescence image and bottom is a western blot.
as §1

C#Cc1cccc(Nc2ncnc3cc(NC(=O)CCl)ccc23)c1
time at which intense labeling (close to saturation) of ATPase was observed [1]: 5 min
IC50 [2]: 30 nM
effect of mutation of cysteine 138 to serine in ATP6V1A on probe labeling [3]: abolished probe labeling

Reference: patent US10047058B2, “Compounds and methods for inhibiting vacuolar ATPase” (University of Southern California, priority 2015, dated 2018)
